IC50 data for one compound are collected here from patent US8802686B2, “Sulfone-substituted anilinopyrimidine derivatives as CDK inhibitors, the production thereof, and use as a medicine” (Bayer Intellectual Property GmbH, priority 2008, dated 2014).

By UniProt entry, the sequences of proteins in these tests, tags left out.
UniProt P06493, whole entry: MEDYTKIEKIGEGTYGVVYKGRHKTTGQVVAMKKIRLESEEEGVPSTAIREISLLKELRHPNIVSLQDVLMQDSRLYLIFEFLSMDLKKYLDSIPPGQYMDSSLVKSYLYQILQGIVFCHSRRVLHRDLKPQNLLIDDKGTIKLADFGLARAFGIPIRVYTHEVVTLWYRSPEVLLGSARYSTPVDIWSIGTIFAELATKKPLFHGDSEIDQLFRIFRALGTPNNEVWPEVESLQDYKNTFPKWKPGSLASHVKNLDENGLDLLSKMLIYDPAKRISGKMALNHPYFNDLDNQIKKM

The target in one test is CDK1/CycB (Homo sapiens (Human), UniProt P06493). Description: CDK1/CycB kinase assay (Assay 1). The format is biochemical. Conditions: read-out: CDK1/CycB (Assay 1) Concentration of the half-maximal inhibition of the enzyme activity, IC50. As to the method: (§1) Recombinant CDK1 and CycB-GST fusion proteins, purified from baculovirus-infected insect cells (Sf9), were purchased from ProQinase GmbH, Freiburg. The histone IIIS used as kinase substrate is commercially available from Sigma. […] The reaction was stopped by adding EDTA solution (250 mM; pH 8.0; 15 μl/measuring point). From each reaction mixture, 15 μl were applied to P30 filter strips (Wallac), and unincorporated ^33P-ATP was removed by washing the filter strips three times, for 10 min in each case, in 0.5% phosphoric acid. After drying the filter strips for 1 hour at 70°, the filter strips were covered with scintillator strips (MeltiLex™ A, Wallac) and stoved for 1 hour at 90° C. The amount of incorporated ^33P (substrate phosphorylation) was determined by scintillation measurement in a gamma-radiation measuring instrument (Wallac).

For another test, the target named is CDK2/CycE (Homo sapiens (Human), UniProt P24941). Put plainly: CDK2/CycE kinase assay (Assay 2). The test is classed as biochemical. The following applies: read-out: CDK2/CycE (Assay 2) Concentration of the half-maximal inhibition of the enzyme activity, IC50. As to the method: as §1, with “CDK2” for “CDK1”, “CycE-GST” for “CycB-GST”, “Histone IIIS, which was” for “The histone IIIS”, “substrate, was purchased” for “substrate is commercially available”, “70° C.,” for “70°,”

On to `C[C@@H](O)[C@@H](C)Oc1nc(Nc2ccc(S(C)(=O)=O)cc2)ncc1C(F)(F)F` [Example 2, (2R,3R)-3-[2-(4-Methanesulphonylphenylamino)-5-trifluoromethylpyrimidin-4-yloxy]butan-2-ol], for which the IC50 was found to be 9 nM on CDK1/CycB and 8 nM on CDK2/CycE.
